The assay addresses Apoptosis regulator Bcl-2 (Homo sapiens, UniProt P10415).

Sequences of proteins named here, by UniProt entry; tags and fusion partners are left off.
UniProt P10415, whole entry: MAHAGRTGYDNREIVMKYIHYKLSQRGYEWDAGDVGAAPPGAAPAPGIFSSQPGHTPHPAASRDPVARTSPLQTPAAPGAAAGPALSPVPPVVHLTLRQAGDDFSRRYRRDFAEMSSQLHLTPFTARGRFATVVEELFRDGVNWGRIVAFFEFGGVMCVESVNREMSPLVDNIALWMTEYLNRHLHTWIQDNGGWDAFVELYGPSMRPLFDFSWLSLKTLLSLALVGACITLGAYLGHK

This note sets out measurements from ChEMBL document CHEMBL4665682, “Fragment Linking Strategies for Structure-Based Drug Design” (J Med Chem, 2020).

As a reminder, the Ki is a measure of affinity in units of concentration, obtained from inhibition or displacement.

With `CC1(C)CCC(c2ccc(Cl)cc2)=C(CN2CCN(c3ccc(C(=O)NS(=O)(=O)c4ccc(N[C@H](CCN5CCOCC5)CSc5ccccc5)c(S(=O)(=O)C(F)(F)F)c4)cc3)CC2)C1` [NAVITOCLAX], the Ki is under 0.5 nM.
